The text below walks through data of PubChem BioAssay AID504937 (National Center for Advancing Translational Sciences (NCATS), 2011).

Chains of the proteins cited; added tags and fusions are not shown. Residues count along the entry.
UniProt P17405, 47-631 limits assumed: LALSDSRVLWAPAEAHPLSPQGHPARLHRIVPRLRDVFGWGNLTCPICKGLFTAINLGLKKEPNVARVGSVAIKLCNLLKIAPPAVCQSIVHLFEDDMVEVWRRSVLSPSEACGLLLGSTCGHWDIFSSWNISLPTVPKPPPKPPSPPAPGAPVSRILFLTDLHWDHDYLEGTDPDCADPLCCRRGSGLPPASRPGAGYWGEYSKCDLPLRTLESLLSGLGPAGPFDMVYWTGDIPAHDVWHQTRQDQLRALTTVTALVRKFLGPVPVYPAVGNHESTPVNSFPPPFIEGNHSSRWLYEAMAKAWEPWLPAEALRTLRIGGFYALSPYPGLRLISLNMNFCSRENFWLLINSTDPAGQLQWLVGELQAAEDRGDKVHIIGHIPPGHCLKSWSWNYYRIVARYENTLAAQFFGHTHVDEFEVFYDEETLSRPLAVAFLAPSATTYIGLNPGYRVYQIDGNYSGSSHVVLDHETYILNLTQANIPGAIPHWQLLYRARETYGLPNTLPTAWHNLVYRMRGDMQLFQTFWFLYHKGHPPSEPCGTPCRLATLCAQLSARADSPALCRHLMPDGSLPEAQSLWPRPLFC

This is a selection; strong and weak results do not stand in their true shares. The source made the active and inactive calls. The call rests on the fitted dose curve; in most records, active means well fitted inhibition curve with a large enough effect; inconclusive means small, poorly fitted or top-dose-only effect; inactive means no such curve, though single readings can be large or run the other way.

This assay concerns the target Sphingomyelin phosphodiesterase (Homo sapiens) (UniProt P17405). Nature of the assay: Inhibitors of Secretory Acid Sphingomyelinase (S-ASM): qHTS. The note with it: placental ASM, HMU-PC fluorogenic substrate (series up to 57.5 µM), 60 min; at 57.5 µM (top of the series).
Take `O=[N+]([O-])c1cc([N+](=O)[O-])c(Nc2ccccn2)c([N+](=O)[O-])c1`: the activity change, negative = inhibition is inactive: -7.64%.
